Yeast mating assay 2: variants of the scFv Ab-95

Source: Engelhart et al. 2022 (doi:10.1038/s41597-022-01779-4), MIT Lincoln Laboratory and A-Alpha Bio; data file from the FLAb repository.

All variants were tested on one target, the spike HR2 peptide PDVDLGDISGINAS (SARS-CoV-2).

Parent: Ab-95, a human scFv built as VH, the linker GGGGSGGGGSGGGGS, VL. Only the CDRs of the light chain vary.
VH: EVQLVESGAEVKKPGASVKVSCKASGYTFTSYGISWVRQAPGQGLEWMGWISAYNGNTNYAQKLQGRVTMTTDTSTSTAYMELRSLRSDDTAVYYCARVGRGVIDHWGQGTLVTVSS
VL: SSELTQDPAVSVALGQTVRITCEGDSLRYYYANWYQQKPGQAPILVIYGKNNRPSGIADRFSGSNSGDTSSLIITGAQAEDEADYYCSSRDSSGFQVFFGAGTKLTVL

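The parent was found by panning a naive human phage display library on the peptide. Variants in AAYL52 differ from the parent at up to three CDR positions; double and triple changes were sampled at random. The scFvs were displayed on barcoded MATa yeast, the peptide on MATalpha yeast. The frequency of each diploid, read from paired DNA barcodes, reflects how well the two displayed proteins bind. A regression on co-assayed BCL2-family reference pairs converts the normalised counts of each replicate to an apparent Kd. There are three technical replicates.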

The whole VL of each variant is written out.
Values are log10 of the apparent Kd in nM; lower means stronger binding.
A pair that was not seen in that replicate is written "nd"; this usually means weak binding, but a binder can also be missed.
In this assay the parent's reference entry averaged 2.31; its copy inside this library read 2.25.
Three control strains display no target. For library AAYL52, 28% of the pairings with them gave a signal, with a median of 3.91 and one signal in twenty below 2.90, so weak values seen in few replicates may be background. For each scFv, signals with the empty controls are counted beside the result.

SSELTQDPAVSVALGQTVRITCEGDSLRWYYANWYQQKPGQAPILVIYGKNNRPSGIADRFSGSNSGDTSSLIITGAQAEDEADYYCSSRDSSGFQVMFGAGTKLTVL: 2.44, 2.79, 2.95 (controls 3 of 9).
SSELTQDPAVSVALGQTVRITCEGDSLRCYYAFWYQQKPGQAPILVIYGKNNRPSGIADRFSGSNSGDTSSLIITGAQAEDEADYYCSWRDSSGFQVFFGAGTKLTVL: 3.66, nd, 3.48 (controls 3 of 9).
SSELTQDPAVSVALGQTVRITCEGDSLRYYYANWYQQKPGQAPILVIYGKNFYPSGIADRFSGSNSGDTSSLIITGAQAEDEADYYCTSRDSSGFQVFFGAGTKLTVL: 5.26, nd, nd (controls 0 of 9).
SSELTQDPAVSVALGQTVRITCEGDSLRYIYAFWYQQKPGQAPILVIYGKNNRPSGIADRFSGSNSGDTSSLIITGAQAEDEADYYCSSRDSSGKQVFFGAGTKLTVL: nd, nd, nd (controls 1 of 9).
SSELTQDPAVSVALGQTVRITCEGVSLRYYYALWYQQKPGQAPILVIYYKNNRPSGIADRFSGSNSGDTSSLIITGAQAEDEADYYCSSRDSSGFQVFFGAGTKLTVL: nd, nd, nd (controls 1 of 9).
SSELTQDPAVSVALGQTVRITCEGDSLRYYMACWYQQKPGQAPILVIYGKNNRPSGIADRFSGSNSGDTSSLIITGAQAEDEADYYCSSRDSSGFQVFFGAGTKLTVL: 4.64, nd, 3.05 (controls 3 of 9).
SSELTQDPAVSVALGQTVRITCEGDSLRYYYAHWYQQKPGQAPILVIYGKNNRPSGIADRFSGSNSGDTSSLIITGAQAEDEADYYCSRRDSSGFQVFFGAGTKLTVL: 4.44, 4.55, 2.96 (controls 4 of 9).
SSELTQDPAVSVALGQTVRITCEGVSLRYYYANWYQQKPGQAPILVIYGKNLRPSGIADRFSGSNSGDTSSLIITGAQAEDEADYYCSSRDSCGFQVFFGAGTKLTVL: 5.29, nd, nd (controls 3 of 9).
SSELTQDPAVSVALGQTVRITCEGDSWRYNYATWYQQKPGQAPILVIYGKNNRPSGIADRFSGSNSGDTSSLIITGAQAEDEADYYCSSRDSSGFQVFFGAGTKLTVL: 1.33, 1.50, 0.62 (controls 6 of 9).
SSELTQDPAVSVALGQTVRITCEGDSLRYYYANWYQQKPGQAPILVIYEKNNRPSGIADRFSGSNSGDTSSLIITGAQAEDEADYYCSSRDSFGEQVFFGAGTKLTVL: 3.26, 3.65, nd (controls 1 of 9).
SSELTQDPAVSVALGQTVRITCEGDSLRYYYCNWYQQKPGQAPILVIYGKSNRPCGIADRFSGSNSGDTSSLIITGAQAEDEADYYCSSRDSSGFQVFFGAGTKLTVL: 3.63, 3.33, 2.38 (controls 0 of 9).
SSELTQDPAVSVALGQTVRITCEGDSLRYYYANWYQQKPGQAPILVIYGANNRPSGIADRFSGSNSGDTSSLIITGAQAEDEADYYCSSRDSSGFQGMFGAGTKLTVL: 2.71, 2.56, 2.42 (controls 0 of 9).
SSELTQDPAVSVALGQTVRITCEGDSLRYYYANWYQQKPGQAPILVIYPKENRHSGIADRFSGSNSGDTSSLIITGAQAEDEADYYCSSRDSSGFQVFFGAGTKLTVL: nd, nd, nd (controls 1 of 9).
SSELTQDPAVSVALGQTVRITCEGDSLRYYYANWYQQKPGQAPILVIYGHNNRPSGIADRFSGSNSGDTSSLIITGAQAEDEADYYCSYRDSSGFQVFFGAGTKLTVL: 3.35, 3.41, 4.26 (controls 4 of 9).
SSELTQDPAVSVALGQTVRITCEGDSLMYYYANWYQQKPGQAPILVIYGKANRRSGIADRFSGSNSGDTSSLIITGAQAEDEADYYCSSRDSSGFQVFFGAGTKLTVL: nd, nd, nd (controls 1 of 9).
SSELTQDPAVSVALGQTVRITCEFDSLRHYYANWYQQKPGQAPILVIYGKNNRPSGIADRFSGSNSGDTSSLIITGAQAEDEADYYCSSRDSSGIQVFFGAGTKLTVL: 3.04, 2.58, 4.10 (controls 2 of 9).
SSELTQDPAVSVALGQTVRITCEGDSLRYYIANWYQQKPGQAPILVIYGKNNRPTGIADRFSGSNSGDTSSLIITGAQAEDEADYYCSSRDSGGFQVFFGAGTKLTVL: nd, 5.73, 4.46 (controls 4 of 9).
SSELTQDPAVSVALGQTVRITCEGDSLRYWYAQWYQQKPGQAPILVIYGKNNRQSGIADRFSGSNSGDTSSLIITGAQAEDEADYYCSSRDSSGFQVFFGAGTKLTVL: nd, nd, nd (controls 0 of 9).
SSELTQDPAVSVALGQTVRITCEPDSLGYYNANWYQQKPGQAPILVIYGKNNRPSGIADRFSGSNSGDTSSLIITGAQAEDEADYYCSSRDSSGFQVFFGAGTKLTVL: 2.93, 4.17, nd (controls 1 of 9).
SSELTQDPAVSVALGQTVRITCEGDSLRYYYANWYQQKPGQAPILVIYGFTKRPSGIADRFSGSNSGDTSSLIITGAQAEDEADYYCSSRDSSGFQVFFGAGTKLTVL: 3.75, nd, 4.35 (controls 4 of 9).
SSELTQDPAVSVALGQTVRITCEGDSLRDYYANWYQQKPGQAPILVIYGKNNRPSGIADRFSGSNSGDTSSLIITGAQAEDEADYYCSSRDRSGFWVFFGAGTKLTVL: 3.41, 2.73, 1.81 (controls 3 of 9).
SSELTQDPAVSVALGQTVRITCEGDSQRYYYANWYQQKPGQAPILVIYGKNNRDSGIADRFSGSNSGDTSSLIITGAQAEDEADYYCSERDSSGFQVFFGAGTKLTVL: 4.76, 4.42, nd (controls 2 of 9).
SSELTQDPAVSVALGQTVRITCEGDSLRYYYANWYQQKPGQAPILVIYGKNSRPSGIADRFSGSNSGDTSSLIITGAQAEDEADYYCSSRDPSGFQSFFGAGTKLTVL: 4.72, 3.60, 2.49 (controls 1 of 9).
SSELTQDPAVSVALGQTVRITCEIRSLRYYYANWYQQKPGQAPILVIYGKNNAPSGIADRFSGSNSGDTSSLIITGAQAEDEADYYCSSRDSSGFQVFFGAGTKLTVL: nd, 4.05, nd (controls 5 of 9).